Results as given in publication PMC6571122 (Journal of medicinal chemistry, 2019).

Assays:
T. gondii DHFR (TgDHFR) = molecular target: T1, T. gondii DHFR (TgDHFR) (Toxoplasma gondii, UniProt Q07422); conditions: for fold more potent for TgDHFR relative to 1 / fold more selective for TgDHFR relative to 1: relative to pyrimethamine 1
T1 sequence (Q07422 1-610): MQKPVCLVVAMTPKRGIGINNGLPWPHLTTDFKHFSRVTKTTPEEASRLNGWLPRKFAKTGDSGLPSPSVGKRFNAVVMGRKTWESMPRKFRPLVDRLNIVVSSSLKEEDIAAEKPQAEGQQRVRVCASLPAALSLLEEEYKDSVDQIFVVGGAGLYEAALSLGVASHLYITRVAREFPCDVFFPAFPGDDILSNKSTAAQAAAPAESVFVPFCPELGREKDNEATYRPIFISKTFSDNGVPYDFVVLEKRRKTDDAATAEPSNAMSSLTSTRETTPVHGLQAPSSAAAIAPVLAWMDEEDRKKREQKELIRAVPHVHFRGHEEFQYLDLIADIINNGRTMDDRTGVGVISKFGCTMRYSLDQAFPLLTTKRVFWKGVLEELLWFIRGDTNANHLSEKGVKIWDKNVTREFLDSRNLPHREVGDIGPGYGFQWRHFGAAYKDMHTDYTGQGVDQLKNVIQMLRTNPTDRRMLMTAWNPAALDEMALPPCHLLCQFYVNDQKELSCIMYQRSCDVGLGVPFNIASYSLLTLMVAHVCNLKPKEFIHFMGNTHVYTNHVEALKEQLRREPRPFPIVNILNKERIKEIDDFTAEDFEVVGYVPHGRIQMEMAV

[1] = tested on: type I RH strain of T. gondii
MDR1 = assay: in vitro; conditions: dog, MDCK-MDR1

Nc1ncc(N2CCN(c3cccc(-c4ccccc4)c3)CC2)c(N)n1 [Compound 2]
fold more potent for TgDHFR relative to 1 (T. gondii DHFR (TgDHFR)): 16 fold | fold more selective for TgDHFR relative to 1 (T. gondii DHFR (TgDHFR)): 6.6 fold

COc1ncc(-c2cccc(N3CCN(c4cnc(N)nc4N)CC3)c2)cn1 [Compound 3]
Selectivity Index (hDHFR IC50/TgDHFR IC50) (T. gondii DHFR (TgDHFR); hDHFR IC50/TgDHFR IC50): 200 | fold more potent for TgDHFR relative to 1 (T. gondii DHFR (TgDHFR)): 89 fold | fold more selective for TgDHFR relative to 1 (T. gondii DHFR (TgDHFR)): 16 fold | Selectivity Index (MCF-7 EC50/Tg cell-based EC50) [1]: 560 | efflux ratio at 0.25 h, 2 µM (MDR1): 1.1

Nc1ncc(N2CCN(c3cccc(-c4cncnc4)c3)CC2)c(N)n1 [Compound 26, 5-(4-(3-(Pyrimidin-5-yl)phenyl)piperazin-1-yl)pyrimidine-2,4-diamine]
fold more selective for TgDHFR relative to 1 (T. gondii DHFR (TgDHFR)): 25 fold
